Earlier results, collected in US9655905B2, “Treatment of sickle cell disease” (KING ABDULLAH UNIVERSITY OF SCIENCE AND TECHNOLOGY, priority 2011, dated 2017).

Conditions: rat, in vivo

## O=S(=O)(c1cccc2c(O)nccc12)N1CCCNCC1 [Hydroxyfasudil, 5-(1,4-diazepane-1-sulfonyl)isoquinolin-1-ol]
  pulmonary hypertension secondary to left ventricular dysfunction: attenuate
